Laboratory results reported in article PMC2639705, “Two Chromogranin A-Derived Peptides Induce Calcium Entry in Human Neutrophils by Calmodulin-Regulated Calcium Independent Phospholipase A2” (PLoS ONE, 2009).

Assays:
PMNs = experiment: Time-lapse intracellular Ca2+ imaging (Fura-2), with SOC/ARC blockers and iPLA2/PLA2 inhibitors; assay type: cell-based, human
[1] = system: nicotinic acetylcholine receptor; details: compared with CAT; ref [70]; cited from earlier work

Substance	inhibition of CAT-induced Ca2+ entry (PMNs; Fura-2, 20 µM CAT, 2.5 mM CaCl2, 100 µM 2-APB (2 min), 25 µM BEL (30 min) or 10 µM BPB (10 min) before peptide)	inhibition of CHR-induced Ca2+ entry (PMNs; Fura-2, 20 µM CHR, 2.5 mM CaCl2, 100 µM 2-APB (2 min), 25 µM BEL (30 min) or 10 µM BPB (10 min) before peptide)	suppression of CMZ-induced Ca2+ influx (PMNs; Fura-2, 37°C, 1 µM CMZ, 25 µM BEL (30 min), 10 µM BPB (10 min) or 100 µM 2-APB (2 min) before)	suppression of W7-induced Ca2+ influx (PMNs; Fura-2, 37°C, 30 µM W7, 25 µM BEL (30 min), 10 µM BPB (10 min) or 100 µM 2-APB (2 min) before)	inhibition of nicotinic cholinergic-stimulated catecholamine release [1]
bromophenacyl bromide	abolished the transient Ca^2+ influx	abolished the transient Ca^2+ influx	significantly suppressed	significantly suppressed	
substance P					may inhibit nicotinic cholinergic-stimulated catecholamine release, but displays a lower potency
